Results as given in patent US20050014682A1, “Cell-free assay for insulin signaling” (priority 2003, published 2005).

Tested on: Akt
Test: Cell-free in vitro assay (3T3-L1 adipocyte PM/CYT/LDM fractions), Akt phosphorylation by phospho-Akt immunoblot
Type: biochemical

Substance: sodium orthovanadate
- control (basal) phospho-Akt signal in reactions containing PM(−ins): also elevated
- signal for both Akt phosphorylation sites in reactions containing PM(+ins): appeared to elevate the signal
